From US7713985B2, “Adenosine Aa2 receptor antagonists” (Schering Corporation, priority 2006, dated 2010)
pKi: −log10 of the molar value.

Target: Human A2a Adenosine Receptor (Homo sapiens, UniProt P29274)
Experiment: Human adenosine A2a receptor competition binding assay
Conditions: read-out: A2a Ki; [3H]-SCH 58261 displacement, human A2a membranes
Description: Human Adenosine A2a and A1 Receptor Competition Binding Assay Protocol
A2a: Human A2a Adenosine Receptor membranes, Catalog #RB-HA2a, Receptor Biology, Inc., Beltsville, Md. Dilute to 17 μg/100 μl in membrane dilution buffer (see below).
Membrane dilution buffer: Dulbecco's Phosphate Buffered Saline (Gibco/BRL)+10 mM MgCl2.
Compound Dilution Buffer: Dulbecco's Phosphate Buffered Saline (Gibco/BRL)+10 mM MgCl2 supplemented with 1.6 mg/ml methyl cellulose and 16% DMSO. Prepared fresh daily.
A2a: [3H]-SCH 58261, custom synthesis, AmershamPharmacia Biotech, Piscataway, N.J. Stock is prepared at 1 nM in membrane dilution buffer. Final assay concentration is 0.5 nM.
A2a: To determine non-specific binding, add 100 nM CGS 15923 (RBI, Natick, Mass.). Working stock is prepared at 400 nM in compound dilution buffer.
Prepare 1 mM stock solutions of compounds in 100% DMSO. Dilute in compound dilution buffer. Test at 10 concentrations ranging from 3 μM to 30 pM. Prepare working solutions at 4× final concentration in compound dilution buffer.
Perform assays in deep well 96 well plates. Total assay volume is 200 μl. Add 50 μl compound dilution buffer (total ligand binding) or 50 μl CGS 15923 working solution (A2a non-specific binding) or 50 μl NECA working solution (A1 non-specific binding) or 50 μl of drug working solution. Add 50 μl ligand stock ([3H]-SCH 58261 for A2a, [3H]-DPCPX for A1). […]

## Nc1nc2ccccc2c2nn(-c3ccccc3)c(=O)n12
  pKi: 7.75
